# Measured values reported in ChEMBL document CHEMBL2311493, “Focused pseudostatic hydrazone libraries screened by mass spectrometry binding assay: optimizing affinities toward γ-aminobutyric acid transporter 1” (J Med Chem, 2013).
# pIC50: −log10 of the molar value.
# Target: Sodium- and chloride-dependent GABA transporter 1 (Mus musculus, UniProt P31648)
# Assay: Inhibition of [3H]GABA uptake at mouse GAT1 expressed in HEK293 cells after 25 mins by scintillation counting analysis
# Type: cell-based
compound,measurement,value
O=C(O)C1CCCNC1 (stereo unspecified) [NIPECOTIC ACID],pIC50,5.10
